The experiment has as its target Tyrosine-protein kinase JAK1 (Homo sapiens, UniProt P23458). In words: In Vitro JAK Kinase Assay: Compounds herein were tested for inhibitory activity of JAK targets according to the following in vitro assay described in Park et al., Analytical Biochemistry 1999, 269, 94-104. The catalytic domains of human JAK1 (a.a. 837-1142), JAK2 (a.a. 828-1132) and JAK3 (a.a. 781-1124) were expressed using baculovirus in insect cells and purified. The catalytic activity of JAK1 ….

Chains of the proteins cited; added tags and fusions are not shown. Lines headed by an entry give the natural chain unless they say otherwise; changes in a name come on top.
UniProt P23458: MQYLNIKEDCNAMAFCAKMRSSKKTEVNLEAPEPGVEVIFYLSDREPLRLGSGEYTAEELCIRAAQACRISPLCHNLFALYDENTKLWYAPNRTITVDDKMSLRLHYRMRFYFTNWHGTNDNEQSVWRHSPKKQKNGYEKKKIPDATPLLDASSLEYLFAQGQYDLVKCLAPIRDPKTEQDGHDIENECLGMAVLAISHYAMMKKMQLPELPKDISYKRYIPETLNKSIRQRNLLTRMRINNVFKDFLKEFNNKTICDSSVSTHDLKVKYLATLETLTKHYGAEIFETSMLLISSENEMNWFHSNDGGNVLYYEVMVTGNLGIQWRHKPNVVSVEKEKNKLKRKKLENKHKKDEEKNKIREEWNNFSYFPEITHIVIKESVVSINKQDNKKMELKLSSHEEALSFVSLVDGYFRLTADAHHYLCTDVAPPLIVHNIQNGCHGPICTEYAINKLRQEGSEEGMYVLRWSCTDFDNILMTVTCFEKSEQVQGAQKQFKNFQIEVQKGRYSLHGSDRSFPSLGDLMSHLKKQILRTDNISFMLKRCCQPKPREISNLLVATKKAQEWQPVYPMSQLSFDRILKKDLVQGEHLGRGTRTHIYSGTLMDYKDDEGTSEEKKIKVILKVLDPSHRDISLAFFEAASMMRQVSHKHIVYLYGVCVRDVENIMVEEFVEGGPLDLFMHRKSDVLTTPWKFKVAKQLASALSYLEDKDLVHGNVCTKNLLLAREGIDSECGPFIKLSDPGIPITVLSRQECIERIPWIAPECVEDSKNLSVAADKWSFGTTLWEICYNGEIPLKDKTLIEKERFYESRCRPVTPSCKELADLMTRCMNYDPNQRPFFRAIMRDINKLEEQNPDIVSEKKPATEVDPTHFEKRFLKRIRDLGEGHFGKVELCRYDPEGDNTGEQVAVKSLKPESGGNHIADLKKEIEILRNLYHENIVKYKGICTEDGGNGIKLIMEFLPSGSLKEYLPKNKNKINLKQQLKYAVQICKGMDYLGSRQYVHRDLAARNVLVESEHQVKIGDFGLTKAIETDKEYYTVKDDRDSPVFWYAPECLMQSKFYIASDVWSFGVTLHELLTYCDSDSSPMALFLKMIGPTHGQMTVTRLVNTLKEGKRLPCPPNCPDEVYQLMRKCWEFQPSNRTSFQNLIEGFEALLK

IC50 data for 1 compound are collected here from ChEMBL document CHEMBL5725589, “Heterocyclic compounds as PI3K-γ inhibitors” (2018).

Each structure is given as a SMILES string. pIC50: −log10 of the molar value.

As to `CN(C)Cc1cc(F)cc(OC2CCN(CC(CC#N)n3cc(-c4ncnc5[nH]ccc45)cn3)CC2)c1` (stereo unspecified), the pIC50 (usually −log10 of the IC50, conventionally taken in molar units) was > 7.00.
